# scFv variants of Ab-14 (heavy chain) against a SARS-CoV-2 spike peptide

Binding partner: SARS-CoV-2 spike HR2 peptide, sequence PDVDLGDISGINAS.

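Phage display of a naive human antibody library on the peptide gave the parent. The variants were designed computationally from a first round of random CDR variants and then made and measured. Group labels follow the data file (Ctrl: baseline library sampled from a position-specific scoring matrix, with some repeated check sequences; Rand: our label for a block that the file lists under HC and that is probably the random mutants of the ten best first-round binders; En: ensemble of fine-tuned language models; GP: Gaussian process model; GPLM: also part of the Gaussian process libraries; HC: hill climbing; Gen: genetic algorithm; Gibbs: Gibbs sampling; a sequence that several methods proposed may carry one label only). The scFvs were displayed on barcoded MATa yeast, the peptide on MATalpha yeast. After mating in shaken culture at 30 °C for 16 h, diploids were selected and their barcode pairs sequenced. Read counts were normalised to the haploid input and turned into Kd by a linear fit to BCL2-family pairs of known affinity, for each replicate. Mating was done six times.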

The variants keep the light chain, the linker and the frameworks of Ab-14 (scFv order VH, a 15-residue (Gly4Ser)3 linker, VL).
VH: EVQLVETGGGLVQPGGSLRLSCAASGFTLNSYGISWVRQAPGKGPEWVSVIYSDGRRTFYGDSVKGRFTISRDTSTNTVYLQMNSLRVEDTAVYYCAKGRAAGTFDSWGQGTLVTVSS
VL: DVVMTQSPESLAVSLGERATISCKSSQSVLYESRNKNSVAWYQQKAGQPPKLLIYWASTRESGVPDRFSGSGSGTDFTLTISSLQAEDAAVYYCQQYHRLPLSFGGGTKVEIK

Each variant is given by its three heavy chain CDRs, as the data file delimits them; those of the parent are GFTLNSYGIS, VIYSDGRRTFYGDSVK, GRAAGTFDS. Variants here have at most six changes. Each Kd is an estimate from the mating assay, the geometric mean of the replicates in which the pair was seen; lower is stronger. An entry "no signal" has no value in the source: the pair was not observed among the diploids in any replicate. This suggests poor binding but is not conclusive. Values of this round are not directly comparable with the first-round values of the same sequences. The authors averaged sequences with at least three values out of six and counted those with two or fewer as poor binders. As a blank, each scFv also met three strains without target: over all heavy chain designs, 1% of these pairings were detected, typically at 120 nM and seldom below 7.0 nM.

* GFTLNEYGIS, VIYSDGRRTFYGDSVK, GRFAGTFDI [GP_HC] -> 3.9 nM (6 of 6 replicates)
* GFSLNEYGIS, VIYSDGRRTFYGDSVK, GPAAGTFDR [GP_HC] -> no signal (0 of 6 replicates)
* GFSLNSYGIS, VIYSDGRRTFYADSVK, GRMAGTFDT [GPLM_Gibbs] -> 1.5 nM (6 of 6 replicates)
* MFDLNSYGIS, VIYSDGRRTAYGDSVK, GRQAGTFDS [GP_Gen] -> 3.0 nM (6 of 6 replicates)
* GFQLNEYGIS, VIYSDGRRTFYSDSVK, GKAAGTFDT [GP_Gibbs] -> 420 pM (6 of 6 replicates)
* GFSLNEYGIS, VIYSDGRRTFYGCSVK, GRTAGTFDS [GPLM_Gen] -> 160 nM (6 of 6 replicates)
* GFSLNDYGIS, VIYSDGRRTFYGDSVK, GRAALTFDH [GP_HC] -> 1.2 nM (6 of 6 replicates)
* GFTLNSYGIS, VIYSDGRRTFYKDSVK, GVAAGTFDS [GP_HC] -> 25 nM (5 of 6 replicates)
* GFSLNSYGIS, VIYSDGRRTFYGDQVK, GRTAGTFDL [GPLM_Gibbs] -> 6.2 nM (6 of 6 replicates)
* GFTLNEYGIS, VIYSDGRRTFYGDSVK, GRAAGTFDT [GPLM_Gen] -> 1.8 nM (6 of 6 replicates)
* GFTLDSYGIS, VIYSDGRRTFYGDSVK, GRQAGTFDQ [GP_HC] -> 12 nM (5 of 6 replicates)
* GFTLNEYGIS, VIYSDGRRTFYGDSVK, LRAAVTFDQ [Rand] -> no signal (0 of 6 replicates)
* GFSLESYGIS, VIYADGRRTFYGDSVK, GRAAGTFDS [GPLM_Gen] -> 690 pM (5 of 6 replicates)
* GFSLNSYGIS, VIYSDGRRTFYKDSVK, GDAAGTFDS [GPLM_Gen] -> 1.2 nM (4 of 6 replicates)
* GFTLNDYGIS, VIYSDGRRTFYADSVK, GRAAGTFMS [GPLM_HC] -> 640 nM (1 of 6 replicates)
* GFTLNSYGIS, VIYSDGRRTSYHDFTK, GRAAGTFDS [Ctrl] -> no signal (0 of 6 replicates)
* GFTLNSYGIS, VIYSDGRRTFYVDSVK, GQVAGKFDS [GP_HC] -> 66 nM (6 of 6 replicates)
* GFDLNEYGIS, VIYADGRRTFYIDSVK, GNAAGTFDS [En_HC] -> 250 pM (6 of 6 replicates)
* WFDLNSYGIS, VIYSDGRRTFYGDSVK, GRQAGTFDS [GP_HC] -> no signal (0 of 6 replicates)
* GFDLNSYGIS, VIYSDGRRTFYGDSVK, GRQAGTFDT [GP_Gen] -> 600 pM (6 of 6 replicates)
* GFTLNEYGIS, VIYSDGRRTFYTDSVK, GRTAGTFDV [GP_HC] -> 940 pM (6 of 6 replicates)
* GFTLNSYGIS, VIYSDGKRTFYGDSVV, GRARGTFDS [Ctrl] -> no signal (0 of 6 replicates)
* GFSLNEYGIS, VIYADGRRTFYGDSVK, GKAAGTFDS [GPLM_Gen] -> 790 pM (6 of 6 replicates)
* GFSLNSYGIS, VIYSDGRRTFYHDSVK, GRTAGTFDT [GPLM_Gen] -> 3.8 nM (6 of 6 replicates)
* GFTVNQYGIS, VIYSDGIRTFYGDSVK, GRAAGTFDS [Ctrl] -> 51 nM (5 of 6 replicates)
* GFTLNEYGIS, VIYSDGRRTFYGDSVK, GRAAWTFCV [GP_HC] -> no signal (0 of 6 replicates)
* GFSLNEYGIS, VIYSDGRRTFYQDSVK, GRTAGTFDS [GPLM_Gen] -> 3.7 nM (1 of 6 replicates)
* GFSLNNYGIS, VIYSDGRRTFYGDSVK, GKTAGTFDS [GPLM_Gen] -> 1.8 nM (6 of 6 replicates)
* GFTLDSYGIS, VIYSDGRRTFYDDSVK, GYAAGTFDS [GP_HC] -> 17 nM (3 of 6 replicates)
* GYTLNEYGIS, VIYSDGRRTQYSDSVK, GRAAGTFDS [GP_HC] -> 5.8 nM (1 of 6 replicates)
* GFDVNSYGIS, VIYSDGRRTFYINSVK, GYAAGTFES [Ctrl] -> no signal (0 of 6 replicates)
* GFTLNSYGIS, VIYSDGRRTFYIDSVK, GRTAGTFDT [GP_Gen] -> no signal (0 of 6 replicates)
* GFDLNEYGIS, VIYADGRRTFYKDSVK, GEAAGTFDM [En_HC] -> 370 pM (6 of 6 replicates)
* GFTLDSYGIS, VIYSDGRRTFYGDSVK, GRAAGTFDV [GPLM_HC] -> 12 nM (5 of 6 replicates)
* GFDLNSYGIS, VIYSDGRRTFYGDSVK, GHAAGTFDD [GPLM_Gibbs] -> 4.3 nM (6 of 6 replicates)
* GFTLNSYGIS, VIYSDGKRTFYGDSVK, GQTAGTFDT [GPLM_Gibbs] -> 5.5 nM (6 of 6 replicates)
* GFSLNSYGIS, VIYSDGSRTSYGDSVR, GRAAGTFDS [Ctrl] -> 32 nM (4 of 6 replicates)
* GFTLNSYGIS, VIYSDGRRTFYDDSVK, GQVSGTFDS [GP_HC] -> 130 nM (4 of 6 replicates)
* GFSLNSYGIS, VIYSDGRRTFYVDSVK, GRTAGTFDA [GP_Gen] -> 360 nM (1 of 6 replicates)

The last 4 entries again:

* GFTLNSYGIS, VIYSDGKRTFYGDSVK, GQTAGTFDT [GPLM_Gibbs]: 5.5 nM (6 of 6 replicates)
* GFSLNSYGIS, VIYSDGSRTSYGDSVR, GRAAGTFDS [Ctrl]: 32 nM (4 of 6 replicates)
* GFTLNSYGIS, VIYSDGRRTFYDDSVK, GQVSGTFDS [GP_HC]: 130 nM (4 of 6 replicates)
* GFSLNSYGIS, VIYSDGRRTFYVDSVK, GRTAGTFDA [GP_Gen]: 360 nM (1 of 6 replicates)

Source: Li et al. 2023 (doi:10.1038/s41467-023-39022-2), MIT Lincoln Laboratory and A-Alpha Bio; data file from the FLAb repository.